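Method: 48-hour compound exposure of cells in 96-well plates, five concentrations, linear interpolation of endpoints. Here, GI50 denotes the concentration required for 50% inhibition of growth. At the TGI there is no net growth.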
What was measured:
Assay in all cases: growth of human tumour cells (NCI), 48 h
EKVX NSCLC = system: EKVX NSCLC
CCRF-CEM leukemia = system: CCRF-CEM leukemia
OVCAR-4 ovarian = system: OVCAR-4 ovarian
MDA-MB-435 = system: MDA-MB-435
A549 NSCLC = system: A549 NSCLC
HT29 colon = system: HT29 colon
UACC-62 melanoma = system: UACC-62 melanoma
K-562 leukemia = system: K-562 leukemia
OVCAR-8 ovarian = system: OVCAR-8 ovarian
BT-549 breast = system: BT-549 breast
UACC-257 melanoma = system: UACC-257 melanoma
COLO 205 colon = system: COLO 205 colon
SR leukemia = system: SR leukemia
CAKI-1 renal = system: CAKI-1 renal
HCC-2998 colon = system: HCC-2998 colon
786-0 renal = system: 786-0 renal
HCT-116 colon = system: HCT-116 colon
NCI-H322M lung = system: NCI-H322M lung
KM12 colon = system: KM12 colon
OVCAR-5 ovarian = system: OVCAR-5 ovarian
IGROV1 ovarian = system: IGROV1 ovarian
SF-268 CNS = system: SF-268 CNS
SNB-19 CNS = system: SNB-19 CNS
HS 578T breast = system: HS 578T breast
SNB-75 CNS = system: SNB-75 CNS
U251 CNS = system: U251 CNS
NCI-H460 lung = system: NCI-H460 lung
SK-MEL-5 melanoma = system: SK-MEL-5 melanoma
OVCAR-3 ovarian = system: OVCAR-3 ovarian

## BrCCN(CCBr)c1ccc2c(c1)Cc1ccccc1-2
EKVX NSCLC
  TGI: 7.76 µM
CCRF-CEM leukemia
  GI50: 0.951 µM
  TGI: > 100 µM
OVCAR-4 ovarian
  GI50: 2.06 µM
  TGI: 5.53 µM
MDA-MB-435
  GI50: 1.78 µM
  TGI: 4.18 µM
A549 NSCLC
  GI50: 1.2 µM
  TGI: 10.3 µM
HT29 colon
  GI50: 1.84 µM
  TGI: 6.35 µM
UACC-62 melanoma
  GI50: 1.17 µM
  TGI: 2.82 µM
K-562 leukemia
  GI50: 2.72 µM
  TGI: > 100 µM
OVCAR-8 ovarian
  GI50: 1.49 µM
  TGI: 4.5 µM
BT-549 breast
  GI50: 1.66 µM
  TGI: 4.62 µM
UACC-257 melanoma
  GI50: 2.2 µM
  TGI: 6.47 µM
COLO 205 colon
  GI50: 1.56 µM
  TGI: 3.52 µM
SR leukemia
  GI50: 0.231 µM
  TGI: > 100 µM
CAKI-1 renal
  GI50: 0.227 µM
  TGI: 0.804 µM
HCC-2998 colon
  GI50: 1.48 µM
  TGI: 3.04 µM
786-0 renal
  GI50: 1.19 µM
  TGI: 3.02 µM
HCT-116 colon
  GI50: 1.21 µM
  TGI: 2.92 µM
NCI-H322M lung
  GI50: 2.65 µM
  TGI: 7.95 µM
KM12 colon
  GI50: 2.33 µM
  TGI: 10.8 µM
OVCAR-5 ovarian
  GI50: 3.14 µM
  TGI: 9.23 µM
IGROV1 ovarian
  GI50: 1.42 µM
  TGI: 4.69 µM
SF-268 CNS
  GI50: 1.3 µM
  TGI: 10.4 µM
SNB-19 CNS
  GI50: 2.24 µM
  TGI: 14.5 µM
HS 578T breast
  GI50: 4.07 µM
  TGI: 39.9 µM
SNB-75 CNS
  GI50: 2.08 µM
  TGI: 7 µM
U251 CNS
  GI50: 1.23 µM
  TGI: 4.01 µM
NCI-H460 lung
  GI50: 0.353 µM
  TGI: 4.09 µM
SK-MEL-5 melanoma
  GI50: 1.36 µM
  TGI: 2.66 µM
OVCAR-3 ovarian
  GI50: 2.13 µM
  TGI: 6.42 µM
